Results on four compounds are retold here after ChEMBL document CHEMBL1141644, “Development of CXCR3 antagonists. Part 4: discovery of 2-amino-(4-tropinyl)quinolines” (Bioorg Med Chem Lett, 2008).

Each structure is given as a SMILES string.

The series is filed under the species Homo sapiens. The series is described as follows: Protein binding in human plasma. Particulars: read-out: PPB (converted).

In the case of `CC(=O)N1C2C=C(CN3[C@@H]4CC[C@H]3C[C@H](Nc3ccc5ccc(OC(C)C)cc5n3)C4)CC1CCC2`, the fraction unbound is 0.033.
As to `CC(=O)N1C2C=C(CN3[C@@H]4CC[C@H]3C[C@H](Nc3ccc5cc(C(F)(F)F)ccc5n3)C4)CC1CCC2`, the fraction unbound was 0.016.
For `CC(=O)N1C2C=C(CN3CCC(Nc4ccc5ccc(C(F)(F)F)cc5n4)CC3)CC1CCC2` (centres undefined), the fraction unbound was 0.027.
With `CC(=O)N1C2C=C(CN3CCC(Nc4ccc5cc(OC(F)(F)F)ccc5n4)CC3)CC1CCC2` (centres undefined) the figure was 0.045.
